The test addresses human epidermal growth factor receptor on HeLa cells (human). In words: cell-based or functional assay.

B1: construct 39 (2x9G8 S54A-GBP-FLAG3His6) (bispecific antibody)
chain: EVQLVESGGGLVQAGGSLRLS[about 100 residues not printed]WGQGTQVTVSSGGGGSGGGGSGGGGSEVQLVESGGGLVQAGGSLRLS[about 100 residues not printed]WGQGTQVTVSSGSGGGGSGGGGSGGGGSQVQLVESGGALVQPGGSLRLSCAASGFPVNRYSMRWYRQAPGKEREWVAGMSSAGDRSSYEDSVKGRFTISRDDARNTVYLQMNSLKPEDTAVYYCNVNVGFEYWGQGTQVTVSSDYKDDDDKDYKDDDDKDYKDDDDKHHHHHH
In the case of B1, the “cell-surface EGFR signal by flow cytometry, HeLa cells, 50 nM, 24 h, relative to untreated cells” value is 49%.

Source of the values: patent US20240327525A1 (VIB VZW, published 2024).
